# Assay results taken from paper PMC3806051 (Journal of the American Chemical Society, 2013).
# Test system: SJSA-1 osteosarcoma tumor xenograft
smiles,measurement,setting,value
"CC(C)(C)C[C@H]1N[C@@H](C(=O)N[C@H]2C[C@@](C)(O)C2)[C@H](c2cccc(Cl)c2)[C@@]12C(=O)Nc1cc(Cl)ccc12 [15a, (2′R,3S,4′R,5′R)-6-chloro-4′-(3-chlorophenyl)-N-((1s,3S)-3-hydroxy-3-methylcyclobutyl)-2′-neopentyl-2-oxospiro[indoline-3,3′-pyrrolidine]-5′-carboxamide]",tumor growth inhibition as compared to vehicle control,"100 mg/kg daily oral gavage 14 days, end of treatment (day 24)",78%
same,weight loss or other signs of toxicity,100 mg/kg oral gavage 14 days,no significant weight loss or other signs of toxicity
same,tumor regression,"100 mg/kg oral gavage for 14 days, SCID mice with SJSA-1 tumors",failed to achieve tumor regression
